Measurements: patent publication EP1329454A1, “THIENOPYRIMIDINE COMPOUNDS AND THEIR SALTS AND PROCESS FOR PREPARATION OF BOTH” (NIPPON SODA CO., LTD., priority 2000, dated 2002)

Amino acid sequences for entries named in this document (tags omitted).
UniProt O00408, whole entry: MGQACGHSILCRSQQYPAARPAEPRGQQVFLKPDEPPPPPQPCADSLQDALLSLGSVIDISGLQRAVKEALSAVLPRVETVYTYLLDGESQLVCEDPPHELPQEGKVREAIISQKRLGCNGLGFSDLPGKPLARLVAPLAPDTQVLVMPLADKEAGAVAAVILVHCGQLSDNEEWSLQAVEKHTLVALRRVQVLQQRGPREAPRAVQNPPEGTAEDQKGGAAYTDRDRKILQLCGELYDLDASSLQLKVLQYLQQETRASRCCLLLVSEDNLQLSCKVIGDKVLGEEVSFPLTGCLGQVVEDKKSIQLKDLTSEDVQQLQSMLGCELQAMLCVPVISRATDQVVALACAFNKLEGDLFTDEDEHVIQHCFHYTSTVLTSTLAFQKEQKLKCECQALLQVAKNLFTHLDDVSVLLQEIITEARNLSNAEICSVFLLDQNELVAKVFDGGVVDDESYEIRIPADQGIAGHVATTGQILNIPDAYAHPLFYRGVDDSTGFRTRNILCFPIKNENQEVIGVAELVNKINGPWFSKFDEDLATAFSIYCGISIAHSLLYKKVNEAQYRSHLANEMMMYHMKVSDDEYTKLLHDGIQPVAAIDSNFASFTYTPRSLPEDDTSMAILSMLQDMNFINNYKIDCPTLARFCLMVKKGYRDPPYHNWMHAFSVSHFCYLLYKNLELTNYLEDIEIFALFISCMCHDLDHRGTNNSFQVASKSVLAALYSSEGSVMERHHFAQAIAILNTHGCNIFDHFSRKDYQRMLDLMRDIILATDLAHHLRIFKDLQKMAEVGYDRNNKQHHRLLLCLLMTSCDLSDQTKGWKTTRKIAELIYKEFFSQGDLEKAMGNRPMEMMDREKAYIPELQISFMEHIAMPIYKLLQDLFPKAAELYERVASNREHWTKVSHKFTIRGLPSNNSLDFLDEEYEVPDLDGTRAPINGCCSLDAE

Target: PDE 2 (cGMP stimulated PDE) (Homo sapiens, UniProt O00408)
Assay: Phosphodiesterase inhibiting effect, PDE 2 separated from human platelets
Assay type: biochemical
Settings: isozyme from human platelets; [3H]-cAMP or [3H]-cGMP substrate; read-out: PDE inhibiting activity : IC50(nM) PDE2
Excerpt: PDE 5 (cGMP specific PDE), PDE 3 (cGMP inhibited PDE) and PDE 2 (cGMP stimulated PDE) were separated from the platelets, PDE 1 (Ca-calmodulin dependent PDE) and PDE 4 (cAMP specific PDE) were separated from the heart and the kidney respectively. The method of Thompson, et al was partially modified to measure phosphodiesterase activities: […] of [3H]-cAMP or [3H]-cGMP was decomposed with phosphodiesterase. The produced 5'-AMP or 5'-GMP was decomposed to adenosine or guanosine with a snake venom (Sigma V7000). The reaction solution was added to anion exchange resin (Bio-Rad Co. Ltd., AG1-X8). Non-adsorbed adenosine or guanosine was counted by a liquid scintillation counter.

Compound: CCCc1nn(C)c2c(=O)[nH]c(-c3cc(S(=O)(=O)N4CCN(C)CC4)ccc3OCC)nc12 [Control, Sildenafil, reference compound]
- IC50: 30000 nM
